Measured values from patent publication US20040077634A1, “Treatment of diseases characterized by excessive or insufficient cell death” (priority 2001, published 2004).

Biological target: T1, recombinant caspase-3 (Homo sapiens, UniProt P42574)
T1 sequence (P42574 29-175 limits assumed): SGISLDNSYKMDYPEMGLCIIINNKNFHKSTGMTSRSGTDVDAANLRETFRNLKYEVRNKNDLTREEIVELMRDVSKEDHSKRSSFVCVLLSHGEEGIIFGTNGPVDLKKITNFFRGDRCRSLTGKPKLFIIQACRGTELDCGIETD
T1 sequence (P42574 176-277 limits assumed): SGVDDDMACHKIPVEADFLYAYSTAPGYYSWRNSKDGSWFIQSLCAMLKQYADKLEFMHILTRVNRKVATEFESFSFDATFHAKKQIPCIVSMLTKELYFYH
Experiment: Recombinant caspase-3 activity, cleavage of DEVD-AFC
Assay type: biochemical
Settings: 0.1 μM DEVD-CHO
Experimental: The inhibition of the DEVDase activity in the in vitro caspase activation system could be due to a direct inhibition of caspase-9, -3, or -7 activities, or to the inhibition of the apoptosome formation. To test if compounds a, f, and g were specific caspase inhibitors, recombinant caspase-3 and caspase-9 were incubated with the three compounds and the enzymatic activities of caspases were monitored by analysing the cleavage of the caspase-3 substrate DEVD-AFC or the caspase-9 substrate LEHD-AFC, respectively.

CC(=O)N[C@@H](CC(=O)O)C(=O)N[C@@H](CCC(=O)O)C(=O)N[C@H](C(=O)N[C@H](C=O)CC(=O)O)C(C)C [DEVD-CHO, reference compound]
inhibition of recombinant caspase-3 activity: almost total inhibition
